Key:
rat androgen receptor = rat androgen receptor (Rattus norvegicus (Rat), UniProt P15207); test: Androgen receptor binding assay (competition binding with [3H]mibolerone); conditions: cytosolic lysates from ventral prostates of castrated rats; 1 nM [3H]mibolerone; Cheng and Prusoff; read-out: AR binding affinity Ki
human AR = human AR (Homo sapiens (Human), UniProt P10275); test: AR antagonism, reporter gene assay in hAR/HEK293 cells; assay type: cell-based; conditions: with submaximal testosterone (usually 0.45 nM), luciferase reporter, 24 incubation
[1] = system: VCaP prostate cancer cell line; test: Inhibition of mibolerone-induced VCaP cell proliferation (WST-1); assay type: cell-based; conditions: mibolerone-induced (usually 0.1 nM) proliferation, 4-5 days
Experimental: The IC50 value of the test compound for inhibition of mibolerone-induced VCaP cell proliferation was measured.
Cell Proliferation Assays
The ability of test compounds to inhibit prostate, cancer cell growth was studied by measuring inhibition of cell proliferation using androgen-sensitive VCaP prostate cancer cell line. […] Cell proliferation was measured using WST-1 Cell Proliferation Assay (Roche).

By UniProt entry, the sequences of proteins in these tests, tags left out. Where a name states a change or a piece, a line headed by the entry shows the natural chain unless it says otherwise.
UniProt P15207, whole entry S389L: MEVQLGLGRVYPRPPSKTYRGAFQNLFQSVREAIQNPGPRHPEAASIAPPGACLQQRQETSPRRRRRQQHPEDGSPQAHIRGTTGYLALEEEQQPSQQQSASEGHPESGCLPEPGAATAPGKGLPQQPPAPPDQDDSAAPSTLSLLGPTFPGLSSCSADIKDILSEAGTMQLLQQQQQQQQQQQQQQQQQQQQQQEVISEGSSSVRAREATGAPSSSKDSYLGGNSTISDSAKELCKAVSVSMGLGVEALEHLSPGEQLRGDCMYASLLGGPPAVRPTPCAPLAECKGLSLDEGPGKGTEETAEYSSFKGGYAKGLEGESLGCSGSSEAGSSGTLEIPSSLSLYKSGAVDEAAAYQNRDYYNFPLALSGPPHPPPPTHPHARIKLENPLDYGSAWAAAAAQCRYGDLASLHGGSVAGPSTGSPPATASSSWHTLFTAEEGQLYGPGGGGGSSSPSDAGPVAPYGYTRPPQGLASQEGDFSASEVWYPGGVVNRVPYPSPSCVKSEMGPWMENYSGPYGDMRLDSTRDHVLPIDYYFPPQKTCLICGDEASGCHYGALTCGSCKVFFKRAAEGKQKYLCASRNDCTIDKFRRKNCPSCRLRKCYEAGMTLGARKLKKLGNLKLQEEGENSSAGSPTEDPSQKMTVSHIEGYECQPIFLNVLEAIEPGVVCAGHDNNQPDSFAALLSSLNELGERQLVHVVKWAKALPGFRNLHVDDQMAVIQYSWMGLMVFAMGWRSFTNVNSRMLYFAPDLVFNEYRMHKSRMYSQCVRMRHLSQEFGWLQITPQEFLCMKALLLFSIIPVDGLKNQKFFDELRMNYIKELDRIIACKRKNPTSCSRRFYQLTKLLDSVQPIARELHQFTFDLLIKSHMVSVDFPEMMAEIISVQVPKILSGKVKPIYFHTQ
UniProt P10275: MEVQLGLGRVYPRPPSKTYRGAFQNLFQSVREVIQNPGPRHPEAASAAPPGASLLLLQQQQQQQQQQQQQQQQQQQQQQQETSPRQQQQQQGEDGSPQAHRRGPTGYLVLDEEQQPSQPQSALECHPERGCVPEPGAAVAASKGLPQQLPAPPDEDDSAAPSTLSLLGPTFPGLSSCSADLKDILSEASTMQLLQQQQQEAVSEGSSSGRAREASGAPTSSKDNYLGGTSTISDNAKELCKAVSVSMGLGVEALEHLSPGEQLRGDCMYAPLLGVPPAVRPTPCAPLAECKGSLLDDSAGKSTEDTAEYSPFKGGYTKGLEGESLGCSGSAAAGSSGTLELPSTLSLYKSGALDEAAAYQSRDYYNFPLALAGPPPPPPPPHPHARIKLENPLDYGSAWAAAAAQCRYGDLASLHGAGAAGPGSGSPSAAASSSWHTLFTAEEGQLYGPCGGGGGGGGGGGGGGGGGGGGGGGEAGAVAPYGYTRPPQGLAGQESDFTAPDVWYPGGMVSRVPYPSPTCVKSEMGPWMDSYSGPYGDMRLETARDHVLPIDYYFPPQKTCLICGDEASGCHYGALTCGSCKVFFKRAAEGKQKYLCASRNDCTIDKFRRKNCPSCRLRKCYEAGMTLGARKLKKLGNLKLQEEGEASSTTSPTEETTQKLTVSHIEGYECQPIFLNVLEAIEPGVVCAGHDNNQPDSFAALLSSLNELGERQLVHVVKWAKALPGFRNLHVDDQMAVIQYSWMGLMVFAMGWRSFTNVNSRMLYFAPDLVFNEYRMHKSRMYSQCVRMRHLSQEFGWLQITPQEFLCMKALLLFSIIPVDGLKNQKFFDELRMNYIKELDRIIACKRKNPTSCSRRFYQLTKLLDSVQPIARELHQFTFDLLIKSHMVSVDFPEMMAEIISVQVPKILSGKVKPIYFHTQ

Compound | Ki (rat androgen receptor) | IC50 (human AR) | IC50 [1]
O=C(NCCc1ccc(-c2ccc(Cl)c(Cl)c2)o1)c1cc(C(=O)N2CCOCC2)n[nH]1 [Example 8, N-(2-(5-(3,4-dichlorophenyl)furan-2-yl)ethyl)-3-(morpholine-4-carbonyl)-1H-pyrazole-5-carboxamide] | 62 nM | – | –
CC(=O)c1cc(C(=O)N[C@@H](C)Cn2ccc(-c3ccc(C#N)c(Cl)c3)n2)[nH]n1 [Example 34, (S)-3-acetyl-N-(1-(3-(3-chloro-4-cyanophenyl)-1H-pyrazol-1-yl)propan-2-yl)-1H-pyrazole-5-carboxamide] | 16 nM | – | –
N#Cc1ccc(-c2ccn(CCNC(=O)c3cc(-c4cccnc4)n[nH]3)n2)cc1C#N [Example 52, N-(2-(3-(3,4-dicyanophenyl)-1H-pyrazol-1-yl)ethyl)-3-(pyridin-3-yl)-1H-pyrazole-5-carboxamide] | 27 nM | – | –
Cc1cc(-c2ccn(CCNC(=O)c3cc(-c4cccnc4)n[nH]3)n2)ccc1C#N [Example 53, N-(2-(3-(4-cyano-3-methylphenyl)-1H-pyrazol-1-yl)ethyl)-3-(pyridin-3-yl)-1H-pyrazole-5-carboxamide] | – | 88 nM | –
Cc1nc(-c2cc(C(=O)N[C@@H](C)Cn3ccc(-c4ccc(C#N)c(Cl)c4)n3)n[nH]2)cs1 [Example 94, (S)—N-(1-(3-(3-chloro-4-cyanophenyl)-1H-pyrazol-1-yl)propan-2-yl)-5-(2-methylthiazol-4-yl)-1H-pyrazole-3-carboxamide] | 8 nM | – | –
C[C@H](Cn1ccc(-c2ccc(C#N)c(Cl)c2)n1)NC(=O)c1csc(N2CCOCC2)n1 [Example 132, (R)—N-(1-(3-(3-chloro-4-cyanophenyl)-1H-pyrazol-1-yl)propan-2-yl)-2-morpholinothiazole-4-carboxamide] | 29 nM | – | –
Cc1c(-c2ccn(C[C@H](C)NC(=O)c3csc(C(C)O)n3)n2)ccc(C#N)c1Cl (stereo partly drawn) [Example 186, N—((S)-1-(3-(3-chloro-4-cyano-2-methylphenyl)-1H-pyrazol-1-yl)propan-2-yl)-2-(1-hydroxyethyl)thiazole-4-carboxamide] | 3 nM | – | –
CC(=O)c1cc(C(=O)NC[C@H](C)n2ccc(-c3cc(F)c(C#N)c(F)c3)n2)[nH]n1 [Example 219, (S)-3-acetyl-N-(2-(3-(4-cyano-3,5-difluorophenyl)-1H-pyrazol-1-yl)propyl)-1H-pyrazole-5-carboxamide] | 40 nM | 146 nM | –
C[C@@H](Cn1ccc(-c2ccc(C#N)c(Cl)c2)n1)NC(=O)c1[nH]nc2c1COCC2 [Example 338, (S)—N-(1-(3-(3-chloro-4-cyanophenyl)-1H-pyrazol-1-yl)propan-2-yl)-2,4,6,7-tetrahydropyrano[4,3-c]pyrazole-3-carboxamide] | 14 nM | – | –
Bicalutamide [reference compound] | – | – | 2000 to 3000 nM
